# Like-named read-outs stand apart in the source and are kept apart here.
# Protein sequences, listed by entry. Tags and fused reporters are not part of them.
# UniProt P22001, whole entry: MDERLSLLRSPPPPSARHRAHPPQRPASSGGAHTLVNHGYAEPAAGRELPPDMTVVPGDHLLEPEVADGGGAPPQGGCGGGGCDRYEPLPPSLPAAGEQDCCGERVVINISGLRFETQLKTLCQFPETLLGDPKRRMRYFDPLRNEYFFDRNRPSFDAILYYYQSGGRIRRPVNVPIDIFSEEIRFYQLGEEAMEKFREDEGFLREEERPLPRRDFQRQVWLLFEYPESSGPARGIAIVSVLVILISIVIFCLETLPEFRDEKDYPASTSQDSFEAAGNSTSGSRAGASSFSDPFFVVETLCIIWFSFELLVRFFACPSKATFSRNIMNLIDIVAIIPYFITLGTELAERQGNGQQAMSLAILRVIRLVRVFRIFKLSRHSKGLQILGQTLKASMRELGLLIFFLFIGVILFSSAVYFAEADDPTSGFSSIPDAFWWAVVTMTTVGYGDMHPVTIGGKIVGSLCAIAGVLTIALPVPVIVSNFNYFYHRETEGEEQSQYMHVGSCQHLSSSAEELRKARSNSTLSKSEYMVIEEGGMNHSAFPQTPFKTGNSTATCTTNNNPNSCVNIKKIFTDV
# UniProt Q09470, whole entry: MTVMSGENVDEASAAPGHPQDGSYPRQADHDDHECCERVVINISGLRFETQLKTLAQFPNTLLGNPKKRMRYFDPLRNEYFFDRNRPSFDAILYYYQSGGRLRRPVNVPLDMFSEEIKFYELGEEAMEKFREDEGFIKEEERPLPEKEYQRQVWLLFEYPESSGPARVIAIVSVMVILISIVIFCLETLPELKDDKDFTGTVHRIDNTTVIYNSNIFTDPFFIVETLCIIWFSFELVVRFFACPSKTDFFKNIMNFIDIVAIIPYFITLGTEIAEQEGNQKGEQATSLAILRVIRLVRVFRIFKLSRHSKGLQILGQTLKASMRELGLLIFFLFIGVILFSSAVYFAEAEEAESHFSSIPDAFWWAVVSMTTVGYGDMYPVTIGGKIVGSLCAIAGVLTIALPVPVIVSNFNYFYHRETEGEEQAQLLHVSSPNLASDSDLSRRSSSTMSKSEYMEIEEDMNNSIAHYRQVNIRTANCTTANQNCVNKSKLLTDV
# Assays:
# human Kv1.3 [1] = biological target: T1, human Kv1.3 (Homo sapiens, UniProt P22001); test: cell-based; parameters: expressed in transfected cells
# human Kv1.3 (CHO) = biological target: T2, human Kv1.3 (CHO) (Homo sapiens, UniProt P22001); test: cell-based
# T2 construct: expressed in transfected cells
# [2] = tested on: thapsigargin-induced IL-2 production in human whole blood; conditions: read-out: Analogue Activity (IC50) WB/IL-2
# human Kv1.1 = biological target: T3, human Kv1.1 (Homo sapiens, UniProt Q09470); test: cell-based; format: cell-based
# T3 construct: expressed in transfected cells; host or cells: HEK293
# human Kv1.1 (HEK293) = biological target: T4, human Kv1.1 (HEK293) (Homo sapiens, UniProt Q09470); test: cell-based
# T4 construct: expressed in transfected cells; host or cells: HEK293
# [3] = tested on: thapsigargin-induced IFN-g production in human whole blood; format: cell-based; conditions: read-out: Analogue Activity (IC50) WB/IFNg
# human Kv1.3 [4] = biological target: T1, human Kv1.3; test: cell-based
structure (smiles),measurement,setting,value
CC[C@H](C)[C@@H]1NC(=O)[C@H](CCCCN)NC(=O)[C@@H](NC(=O)[C@H](CCCCN)NC(=O)[C@@H](NC(=O)[C@H](CC(N)=O)NC(=O)[C@@H](NC(=O)[C@@H](NC(=O)[C@@H](NC(=O)CN)C(C)C)[C@@H](C)CC)[C@@H](C)CC)C(C)C)CSSC[C@@H]2NC(=O)[C@H](CCCCN)NC(=O)CNC(=O)[C@H](Cc3ccccc3)NC(=O)[C@H](CCCNC(=N)N)NC(=O)[C@H](CCSC)NC(=O)CNC(=O)[C@H](C)NC(=O)[C@H](CCCCN)NC(=O)[C@H](CCCCN)NC(=O)[C@@H]3CSSC[C@@H](C(=O)N[C@H](C(=O)N4CCC[C@H]4C(=O)N[C@@H](CCCCN)C(=O)O)[C@@H](C)O)NC(=O)[C@H](Cc4cccc5ccccc45)NC(=O)[C@H](CSSC[C@H](NC(=O)[C@H](CCC(N)=O)NC(=O)[C@H](CCCNC(=N)N)NC(=O)[C@H](CO)NC1=O)C(=O)N[C@@H](CC(C)C)C(=O)N[C@@H](CCC(=O)O)C(=O)N1CCC[C@H]1C(=O)N3)NC(=O)[C@H](CCCCN)NC(=O)CNC(=O)[C@H](CC(N)=O)NC(=O)[C@H](CCSC)NC2=O [H34Nal],IC50,human Kv1.3 [1],0.215 nM
same,Kv1.3 Selectivity (= Kv1.1/Kv.3 IC50),human Kv1.3 [1],136
same,IC50,human Kv1.3 (CHO),0.0603 nM
same,IC50,[2],3.32 nM
same,IC50,human Kv1.1,29.2 nM
same,IC50,human Kv1.1 (HEK293),> 3.33 nM
same,IC50,[3],6.19 nM
"CC[C@H](C)[C@@H]1NC(=O)[C@H](CCCCN)NC(=O)[C@@H](NC(=O)[C@H](CCCCN)NC(=O)[C@@H](NC(=O)[C@H](CC(N)=O)NC(=O)[C@@H](NC(=O)[C@@H](NC(=O)[C@@H](NC(=O)CN)C(C)C)[C@@H](C)CC)[C@@H](C)CC)C(C)C)CSSC[C@@H]2NC(=O)[C@H](CCCCN)NC(=O)CNC(=O)[C@H](Cc3ccccc3)NC(=O)[C@H](CCCNC(=N)N)NC(=O)[C@H](CCSC)NC(=O)CNC(=O)[C@H](C)NC(=O)[C@H](CCCCN)NC(=O)[C@H](CCCCN)NC(=O)[C@@H]3CSSC[C@@H](C(=O)N[C@H](C(=O)N4CCC[C@H]4C(=O)N[C@@H](CCCCN)C(=O)O)[C@@H](C)O)NC(=O)[C@H](Cc4c[nH]cn4)NC(=O)[C@H](CSSC[C@H](NC(=O)[C@H](CCC(N)=O)NC(=O)[C@H](CCCNC(=N)N)NC(=O)[C@H](CO)NC1=O)C(=O)N[C@@H](CC(C)C)C(=O)N[C@@H](CCC(=O)O)C(=O)N1CCC[C@H]1C(=O)N3)NC(=O)[C@H](CCCCN)NC(=O)CNC(=O)[C@H](CC(N)=O)NC(=O)[C@H](CCSC)NC2=O [OSK1, reference compound]",Kv1.1 IC50 relative to Kv1.3 IC50,human Kv1.1,5 fold
same,selectivity ratio of Kv1.1/Kv1.3,human Kv1.1,4 fold
CC[C@H](C)[C@@H]1NC(=O)[C@H](CCCCN)NC(=O)[C@@H](NC(=O)[C@H](CCCCN)NC(=O)[C@@H](NC(=O)[C@H](CC(N)=O)NC(=O)[C@@H](NC(=O)[C@@H](NC(=O)[C@@H](NC(=O)CN)C(C)C)[C@@H](C)CC)[C@@H](C)CC)C(C)C)CSSC[C@@H]2NC(=O)[C@H](CCCCN)NC(=O)CNC(=O)[C@H](Cc3ccccc3)NC(=O)[C@H](CCCNC(=N)N)NC(=O)[C@H](CCSC)NC(=O)CNC(=O)[C@H](C)NC(=O)[C@H](CCCCN)NC(=O)[C@H](CCCCN)NC(=O)[C@@H]3CSSC[C@@H](C(=O)N[C@H](C(=O)N4CCC[C@H]4C(=O)N[C@@H](CCCCN)C(=O)O)[C@@H](C)O)NC(=O)[C@H](Cc4c[nH]cn4)NC(=O)[C@H](CSSC[C@H](NC(=O)[C@H](CCC(N)=O)NC(=O)[C@H](CCCNC(=N)N)NC(=O)[C@H](Cc4cccc5ccccc45)NC1=O)C(=O)N[C@@H](CC(C)C)C(=O)N[C@@H](CCC(=O)O)C(=O)N1CCC[C@H]1C(=O)N3)NC(=O)[C@H](CCCCN)NC(=O)CNC(=O)[C@H](CC(N)=O)NC(=O)[C@H](CCSC)NC2=O [S11Nal],Kv1.3 Selectivity (= Kv1.1/Kv.3 IC50),human Kv1.3 [1],57
same,IC50,[2],23.9 nM
same,IC50,[3],17.9 nM
CC[C@H](C)[C@@H]1NC(=O)[C@H](CCCCN)NC(=O)[C@@H](NC(=O)[C@H](CCCCN)NC(=O)[C@@H](NC(=O)[C@H](CC(N)=O)NC(=O)[C@@H](NC(=O)[C@@H](NC(=O)[C@@H](NC(=O)CN)C(C)C)[C@@H](C)CC)[C@@H](C)CC)C(C)C)CSSC[C@@H]2NC(=O)[C@H](CCCCN)NC(=O)CNC(=O)[C@H](Cc3ccccc3)NC(=O)[C@H](CCCNC(=N)N)NC(=O)[C@H](CCSC)NC(=O)CNC(=O)[C@H](C)NC(=O)[C@H](CCCCN)NC(=O)[C@H](CCCCN)NC(=O)[C@@H]3CSSC[C@@H](C(=O)N[C@H](C(=O)N4CCC[C@H]4C(=O)N[C@@H](CCCCN)C(=O)O)[C@@H](C)O)NC(=O)[C@H](Cc4c[nH]cn4)NC(=O)[C@H](CSSC[C@H](NC(=O)[C@H](CCC(N)=O)NC(=O)[C@H](CCCNC(=N)N)NC(=O)[C@H](CO)NC1=O)C(=O)N[C@@H](CC(C)C)C(=O)N[C@@H](CCC(=O)O)C(=O)N1CCC[C@H]1C(=O)N3)NC(=O)[C@H](CCCCN)NC(=O)CNC(=O)[C@H](CC(N)=O)NC(=O)[C@H](CCSC)NC2=O [Synthetic OSK1],IC50,human Kv1.3 [4],0.039 nM
same,hKv1.1/hKv1.3 selectivity ratio,human Kv1.3 [4],4
CC[C@H](C)[C@@H]1NC(=O)[C@H](CCCCN)NC(=O)[C@@H](NC(=O)[C@H](CCCCN)NC(=O)[C@@H](NC(=O)[C@H](CC(N)=O)NC(=O)[C@@H](NC(=O)[C@@H](NC(=O)[C@@H](NC(=O)CN)C(C)C)[C@@H](C)CC)[C@@H](C)CC)C(C)C)CSSC[C@@H]2NC(=O)[C@H](CCCCN)NC(=O)CNC(=O)[C@H](Cc3ccccc3)NC(=O)[C@H](CCCNC(=N)N)NC(=O)[C@H](CCSC)NC(=O)CNC(=O)[C@H](C)NC(=O)[C@H](CCCCN)NC(=O)[C@H](CCCCN)NC(=O)[C@@H]3CSSC[C@@H](C(=O)N[C@H](C(=O)N4CCC[C@H]4C(=O)N[C@@H](CCCCN)C(=O)O)[C@@H](C)O)NC(=O)[C@H](Cc4c[nH]cn4)NC(=O)[C@H](CSSC[C@H](NC(=O)[C@H](CCC(N)=O)NC(=O)[C@H](CCCNC(=N)N)NC(=O)[C@H](CO)NC1=O)C(=O)N[C@@H](CC(C)C)C(=O)N[C@@H](CCC(=O)O)C(=O)N1CCC[C@H]1C(=O)N3)NC(=O)[C@H](CCCCN)NC(=O)CNC(=O)[C@H](CC(N)=O)NC(=O)[C@H](CCSC)NC2=O [wild-type],Kv1.3 Selectivity (= Kv1.1/Kv.3 IC50),human Kv1.3 [1],5
same,IC50,human Kv1.3 [1]; read-out: Kv1.3 (IC50),0.039 nM

# Reference: US7820623B2 (priority 2006, dated 2010)
